Our source for the IC50 values is US9783573B2, “IAP antagonists” (BRISTOL-MYERS SQUIBB COMPANY, priority 2012, dated 2017).

Like-named read-outs stand apart in the source and are kept apart here.

Assay [1] addresses T1, His-BIR2 (124-240/C202A/C213G) (Homo sapiens (Human), UniProt P98170, C202A/C213G). Description: biochemical.
Assay [2] deals with T1, His-BIR2 (124-240/C202A/C213G). To be noted: read-out: XIAP-BIR2 AlphaScreen IC50, Biotinylated SMAC peptide.

With `CN[C@@H](C)C(=O)N[C@H](C(=O)N1Cc2cc(NC(=O)CCC(=O)N[C@H]3C[C@@H](C(=O)N[C@@H]4CCCc5ccccc54)N(C(=O)[C@@H](NC(=O)[C@H](C)NC)C(C)(C)C)C3)ccc2C[C@H]1C(=O)N[C@@H]1CCCc2ccccc21)C(C)(C)C` [Example 1, N^1—((S)-2-((S)-3,3-Dimethyl-2-((S)-2-(methylamino)propanamido)butanoyl)-3-(((R)-1,2,3,4-tetrahydronaphthalen-1-yl)carbamoyl)-1,2,3,4-tetrahydroisoquinolin-7-yl)-N^4-((3S,5S)-1-((S)-3,3-dimethyl-2-((S)-2-(methylamino)propanamido)butanoyl)-5-(((R)-1,2,3,4-tetrahydronaphthalen-1-yl)carbamoyl)pyrrolidin-3-yl)succinamide], the IC50 (commonly the concentration needed to halve the response being measured) in assay [1] is 96 nM.
Still for that read-out and setting: with `CN[C@@H](C)C(=O)N[C@H](C(=O)N1Cc2cc(NC(=O)c3ccc(C(=O)N[C@H]4C[C@@H](C(=O)N[C@@H]5CCCc6ccccc65)N(C(=O)[C@@H](NC(=O)[C@@H](NC)C(C)C)C(C)(C)C)C4)cc3)ccc2C[C@H]1C(=O)N[C@@H]1CCCc2ccccc21)C(C)(C)C` [Example 36, N^1-((S)-2-((S)-3,3-dimethyl-2-((S)-2-(methylamino)propanamido)butanoyl)-3-(((R)-1,2,3,4-tetrahydronaphthalen-1-yl)carbamoyl)-1,2,3,4-tetrahydroisoquinolin-7-yl)-N^4-((3S,5S)-1-((S)-3,3-dimethyl-2-((S)-3-methyl-2-(methylamino)butanamido)butanoyl)-5-(((R)-1,2,3,4-tetrahydronaphthalen-1-yl)carbamoyl)pyrrolidin-3-yl)terephthalamide] the figure was 1900 nM.
For `CC[C@H](NC)C(=O)N[C@H](C(=O)N1Cc2cc(OCc3ccc(C(=O)N[C@H]4C[C@@H](C(=O)N[C@@H]5CCCc6ccccc65)N(C(=O)[C@@H](NC(=O)[C@H](C)NC)C(C)(C)C)C4)cc3)ccc2C[C@H]1C(=O)N[C@@H]1CCCc2ccccc21)C(C)(C)C` [Example 43], the IC50 in assay [2] came out at 700 nM.
Still for that read-out and setting: then `CN[C@@H](C)C(=O)N[C@H](C(=O)N1Cc2cc(OC(=O)c3ccc(C(=O)N[C@H]4C[C@@H](C(=O)N[C@@H]5CCCc6ccccc65)N(C(=O)[C@@H](NC(=O)[C@H](C)NC)C(C)(C)C)C4)cc3)ccc2C[C@H]1C(=O)N[C@@H]1CCCc2ccccc21)C(C)(C)C` [Example 46, (S)-2-((S)-3,3-Dimethyl-2-((S)-2-(methylamino)propanamido)butanoyl)-3-(((R)-1,2,3,4-tetrahydronaphthalen-1-yl)carbamoyl)-1,2,3,4-tetrahydroisoquinolin-7-yl 4-(((3S,5S)-1-((S)-3,3-dimethyl-2-((S)-2-(methylamino)propanamido)butanoyl)-5-(((R)-1,2,3,4-tetrahydronaphthalen-1-yl)carbamoyl)pyrrolidin-3-yl)carbamoyl)benzoate], with 190 nM; and `CN[C@@H](C)C(=O)N[C@H](C(=O)N1Cc2cc(NC(=O)c3ccc(CO[C@H]4C[C@@H](C(=O)N[C@@H]5CCCc6ccccc65)N(C(=O)[C@@H](NC(=O)[C@H](C)NC)C(C)(C)C)C4)cc3)ccc2C[C@H]1C(=O)N[C@@H]1CCCc2ccccc21)C(C)(C)C` [Example 47, (S)-2-((S)-3,3-Dimethyl-2-((S)-2-(methylamino)propanamido)butanoyl)-7-(4-((((3S,5S)-1-((S)-3,3-dimethyl-2-((S)-2-(methylamino)propanamido)butanoyl)-5-(((R)-1,2,3,4-tetrahydronaphthalen-1-yl)carbamoyl)pyrrolidin-3-yl)oxy)methyl)benzamido)-N—((R)-1,2,3,4-tetrahydronaphthalen-1-yl)-1,2,3,4-tetrahydroisoquinoline-3-carboxamide], with 130 nM.
Same read-out and setting: with `CN[C@@H](C)C(=O)N[C@H](C(=O)N1Cc2cc(OC(=O)c3ccc(CO[C@H]4C[C@@H](C(=O)N[C@@H]5CCCc6ccccc65)N(C(=O)[C@@H](NC(=O)[C@H](C)NC)C(C)(C)C)C4)cc3)ccc2C[C@H]1C(=O)N[C@@H]1CCCc2ccccc21)C(C)(C)C` [Example 48, (S)-2-((S)-3,3-Dimethyl-2-((S)-2-(methylamino)propanamido)butanoyl)-3-(((R)-1,2,3,4-tetrahydronaphthalen-1-yl)carbamoyl)-1,2,3,4-tetrahydroisoquinolin-7-yl 4-((((3S,5S)-1-((S)-3,3-dimethyl-2-((S)-2-(methylamino)propanamido)butanoyl)-5-(((R)-1,2,3,4-tetrahydronaphthalen-1-yl)carbamoyl)pyrrolidin-3-yl)oxy)methyl)benzoate] the figure was 500 nM; with `CN[C@@H](C)C(=O)N[C@H](C(=O)N1Cc2cc(NC(=O)c3ccc(CO[C@H]4C[C@@H](C(=O)N[C@@H]5CCCc6ccccc65)N(C(=O)[C@@H](NC(=O)[C@H](C)NC)C(C)(C)C)C4)cc3)ccc2C[C@H]1C(=O)N[C@H](C)c1ccccc1F)C(C)(C)C` [Example 50, (S)-2-((S)-3,3-Dimethyl-2-((S)-2-(methylamino)propanamido)butanoyl)-7-(4-((((3S,5S)-1-((S)-3,3-dimethyl-2-((S)-2-(methylamino)propanamido)butanoyl)-5-(((R)-1,2,3,4-tetrahydronaphthalen-1-yl)carbamoyl)pyrrolidin-3-yl)oxy)methyl)benzamido)-N-((R)-1-(2-fluorophenyl)ethyl)-1,2,3,4-tetrahydroisoquinoline-3-carboxamide], 610 nM.
Consider `CN[C@@H](C)C(=O)N[C@H](C(=O)N1Cc2cc(NC(=O)c3cccc(CO[C@H]4C[C@@H](C(=O)N[C@@H]5CCCc6ccccc65)N(C(=O)[C@@H](NC(=O)[C@H](C)NC)C(C)(C)C)C4)c3)ccc2C[C@H]1C(=O)N[C@@H]1CCCc2ccccc21)C(C)(C)C` [Example 52, (S)-2-((S)-3,3-Dimethyl-2-((S)-2-(methylamino)propanamido)butanoyl)-7-(3-((((3S,5S)-1-((S)-3,3-dimethyl-2-((S)-2-(methylamino)propanamido)butanoyl)-5-(((R)-1,2,3,4-tetrahydronaphthalen-1-yl)carbamoyl)pyrrolidin-3-yl)oxy)methyl)benzamido)-N-((R)-1,2,3,4-tetrahydronaphthalen-1-yl)-1,2,3,4-tetrahydroisoquinoline-3-carboxamide], for which, in assay [2], the IC50 was 360 nM.
Still for that read-out and setting: then `CN[C@@H](C)C(=O)N[C@H](C(=O)N1Cc2cc(NC(=O)c3ccc4ccn(C(=O)NC5C[C@@H](C(=O)NC6CCCc7ccccc76)N(C(=O)[C@@H](NC(=O)[C@H](C)NC)C(C)(C)C)C5)c4c3)ccc2C[C@H]1C(=O)NC1CCCc2ccccc21)C(C)(C)C` (stereo partly drawn) [Example 53, N^6-((3S)-2-((S)-3,3-Dimethyl-2-((S)-2-(methylamino)propanamido)butanoyl)-3-((1,2,3,4-tetrahydronaphthalen-1-yl)carbamoyl)-1,2,3,4-tetrahydroisoquinolin-7-yl)-N^1-((5S)-1-((S)-3,3-dimethyl-2-((S)-2-(methylamino)propanamido)butanoyl)-5-((1,2,3,4-tetrahydronaphthalen-1-yl)carbamoyl)pyrrolidin-3-yl)-1H-indole-1,6-dicarboxamide], with 250 nM.
